# According to patent US8877732B2, “Combination, kit and method of reducing intraocular pressure” (Inotek Pharmaceuticals Corporation, priority 2010, dated 2014):
# Tested on: intraocular pressure (IOP) in normotensive monkeys
# Assay: IOP after single topical ocular dosing of Compound A with or after latanoprost in conscious normotensive monkeys (Treatments 1-5)
# Assay type: in vivo, cynomolgus monkeys (Macaca fascicularis)
# Conditions: Compound A 100 mcg (aqueous suspension, 4 or 5 h after) or 500 mcg (HPβCD, immediately after) latanoprost 1.5 mcg, 1 hour after Compound A, each arm, n=10
# Method: Compound A was administered in two different formulations: […]
# In one formulation, lyophilized Compound A to HPβCD in 1:20 (wt/wt) was reconstituted with 0.9% Saline for Injection, USP.
# The aqueous formulation comprised of the following: […]
# The control in the first treatment was a 40 mcL composition of 0.8% sodium chloride (NaCl), 0.15% citrate, 0.01% benzalkonium chloride, 0.3% polysorbate 80, and 0.7% sodium (Na) carboxymethylcellulose.
# In the third treatment, 10 monkeys received latanoprost (Xalatan™) dosed via 2 drops at 15 mcL apart (at a concentration of 50 mcg/mL) for a total dose of 1.5 mcg in one study eye and 2 drops of saline vehicle in the contralateral eye. This treatment was performed at two separate times with a sufficient washout between treatments. The IOPs of both the study eye and contralateral eye were measured repeatedly using a calibrated pneumotonometer following an application of a topical anesthetic (proparacaine).
# In the fourth treatment, 10 monkeys received latanoprost (Xalatan™) topically dosed via 2 drops at 15 mcL apart (at a concentration of 50 mcg/mL) for a total dose of 1.5 mcg in one study eye and saline in the contralateral eye. […] The intraocular pressures (IOP) of both the study eye and contralateral eye were measured repeatedly using a calibrated pneumotonometer following an application of a topical anesthetic (proparacaine). […]
structure (smiles),measurement,value
"O=[N+]([O-])OC[C@H]1O[C@@H](n2cnc3c(NC4CCCC4)ncnc32)[C@H](O)[C@@H]1O [Compound A, ((2R,3S,4R,5R)-5-(6-(cyclopentylamino)-9H-purin-9-yl)-3,4-dihydroxytetrahydrofuran-2-yl)methyl nitrate]",reduction in IOP relative to latanoprost alone,further significant reduction in IOP
